The values that follow come from PMC8341910, “Structural and biophysical insights into the mode of covalent binding of rationally designed potent BMX inhibitors” (RSC Chemical Biology, 2020).

Protein sequences, listed by entry. Tags and fused reporters are not part of them. Residues count along the entry.
UniProt P51813, whole entry: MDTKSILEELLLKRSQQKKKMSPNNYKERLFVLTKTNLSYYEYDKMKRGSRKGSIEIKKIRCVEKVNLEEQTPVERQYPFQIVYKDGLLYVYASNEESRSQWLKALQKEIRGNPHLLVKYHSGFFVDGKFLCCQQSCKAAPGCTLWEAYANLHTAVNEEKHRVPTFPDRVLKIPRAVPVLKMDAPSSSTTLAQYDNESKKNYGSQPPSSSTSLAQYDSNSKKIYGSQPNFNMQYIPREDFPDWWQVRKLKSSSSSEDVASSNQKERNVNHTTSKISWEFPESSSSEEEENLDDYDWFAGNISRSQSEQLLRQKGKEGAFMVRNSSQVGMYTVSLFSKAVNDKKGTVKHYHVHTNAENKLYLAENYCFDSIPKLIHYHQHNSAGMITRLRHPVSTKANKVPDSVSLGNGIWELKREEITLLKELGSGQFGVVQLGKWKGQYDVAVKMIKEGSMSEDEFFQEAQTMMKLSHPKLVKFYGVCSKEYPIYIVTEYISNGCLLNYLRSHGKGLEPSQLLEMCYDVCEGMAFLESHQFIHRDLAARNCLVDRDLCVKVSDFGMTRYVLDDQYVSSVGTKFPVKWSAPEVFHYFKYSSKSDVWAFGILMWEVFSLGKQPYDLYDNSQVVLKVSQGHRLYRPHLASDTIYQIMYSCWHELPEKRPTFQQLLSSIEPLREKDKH
UniProt P51813, 417-675 limits assumed: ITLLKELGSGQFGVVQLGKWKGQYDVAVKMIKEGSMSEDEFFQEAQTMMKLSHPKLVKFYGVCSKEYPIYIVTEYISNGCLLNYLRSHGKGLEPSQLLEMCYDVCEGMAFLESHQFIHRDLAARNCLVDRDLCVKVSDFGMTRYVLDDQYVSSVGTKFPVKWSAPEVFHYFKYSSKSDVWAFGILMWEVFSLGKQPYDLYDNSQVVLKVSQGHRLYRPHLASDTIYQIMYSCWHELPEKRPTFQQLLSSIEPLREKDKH

A short description of data set [1]: Dynamic light scattering, colloidal aggregation. Conditions: measured at 10 µM, 1 µM and 100 nM; water, 25 °C. The data set is classed as physicochemical.
For data set [2], the target named is hBMX (Homo sapiens, UniProt P51813). Conditions: read-out: BMX IC50; Experiment 2 of Fig. S3; control commercial BMX-IN-1.
Data set [3] deals with recombinant human BMX protein (hBMX) (Homo sapiens, UniProt P51813). Description: Differential scanning fluorimetry (DSF). It counts as binding. The conditions noted are these: 100 μM compound. On the technique in general: Differential scanning fluorimetry follows unfolding on heating by fluorescence.

pIC50: −log10 of the molar value. Where only a bound is given, the exact number is not on record here.

For orientation: pIC50 means the negative decadic logarithm of the IC50, by convention in mol/L. As for `C=CC(=O)Nc1cc(Nc2c(C(=O)OCC)cnc3ccc(-c4ccc(NS(C)(=O)=O)cc4)cc23)ccc1C`, in data set [1], the “DLS maximum soluble concentration at which no aggregates are observed” value is reported as less than 0.1 µM. For the same compound, in data set [2], the negative logarithm of the IC50 (pIC50) was 6.39.

As usually defined, the ΔTm is the shift of the melting midpoint relative to a reference. Consider `C=CC(=O)Nc1cc(-n2c(=O)ccc3cnc4ccc(-c5ccc(NC(=O)OC)cc5)cc4c32)ccc1C`, for which, in data set [3] (versus apo-BMX), the ΔTm is 8.09±0.06 °C. Moreover, in data set [3] (apo-BMX Tm 51.8-52.2 °C), the “Average Tm of BMX with compound” value is 60.02±0.06 °C. For the same compound, the pIC50 in data set [2] was 7.30.
